# Data as given in article PMC12883167 (Bioorganic & medicinal chemistry letters, 2019).
# Target: T1, MALT1 protease (Homo sapiens, UniProt Q9UDY8)
# T1 sequence (Q9UDY8 1-824): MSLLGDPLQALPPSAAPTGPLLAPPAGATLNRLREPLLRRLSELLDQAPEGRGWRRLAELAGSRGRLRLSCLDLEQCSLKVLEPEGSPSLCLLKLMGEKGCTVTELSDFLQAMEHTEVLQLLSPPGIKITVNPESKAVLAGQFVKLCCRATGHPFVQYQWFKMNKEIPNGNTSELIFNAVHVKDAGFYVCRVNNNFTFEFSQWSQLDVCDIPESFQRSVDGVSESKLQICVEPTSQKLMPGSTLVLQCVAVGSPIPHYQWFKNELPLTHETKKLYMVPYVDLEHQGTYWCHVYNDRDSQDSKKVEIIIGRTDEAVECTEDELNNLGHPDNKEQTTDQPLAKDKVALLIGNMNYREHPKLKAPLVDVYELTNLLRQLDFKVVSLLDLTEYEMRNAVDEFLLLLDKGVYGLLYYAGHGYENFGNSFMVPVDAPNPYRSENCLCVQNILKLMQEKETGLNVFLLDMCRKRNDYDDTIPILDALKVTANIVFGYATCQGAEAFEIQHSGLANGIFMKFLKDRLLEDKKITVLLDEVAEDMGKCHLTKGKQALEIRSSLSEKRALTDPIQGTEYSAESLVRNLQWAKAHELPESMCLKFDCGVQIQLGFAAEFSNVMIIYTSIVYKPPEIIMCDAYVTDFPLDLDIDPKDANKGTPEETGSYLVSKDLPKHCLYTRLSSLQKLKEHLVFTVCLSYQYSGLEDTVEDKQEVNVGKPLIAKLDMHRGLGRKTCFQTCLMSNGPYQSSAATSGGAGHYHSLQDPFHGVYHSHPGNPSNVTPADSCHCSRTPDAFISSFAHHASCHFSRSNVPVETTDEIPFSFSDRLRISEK
# Type: cell-based
# Settings: Cell (Glo), GloSensor reporter, PMA/IO activated Raji cells
row,pIC50,Compound
1,6.28,"CC(C)C[C@H](NC(=O)OCc1ccccc1)C(=O)N[C@H](C(=O)N1CCC[C@H]1C(=O)N[C@@H](CCCNC(=N)N)C(=O)CF)C(C)C [Compound 1, Z-LVPR-fmk]"
2,7.21,CC(C)[C@H](NC(=O)c1ccc(Br)cc1)C(=O)N[C@@H](CO)C(=O)N[C@@H](CCCNC(=N)N)C(=O)CF [Compound 44]
3,5.58,"CC(C)[C@H](NC(=O)OCc1ccccc1)C(=O)N[C@@H](CCCNC(=N)N)C(=O)N1CCC[C@H]1C(=O)N[C@@H](CCCNC(=N)N)C(=O)CF [Z-VRPR-fmk, reference compound]"

# pIC50: −log10 of the molar value.
